{"source": "patent US20080248131A1", "about": "(Metaproteomics, LLC, priority 2005, published 2008)", "key": {"KK-Ay/Ta mice": {"system": "KK-Ay/Ta mice", "assay": "KK-Ay mouse diabetes model, serum glucose and insulin", "format": "in vivo", "conditions": "KK-Ay diabetic mice; 1.0 mg/kg-day, gavage once daily for three days"}, "db/db mice": {"system": "db/db mice", "assay": "db/db mouse diabetes model, serum glucose and insulin", "format": "in vivo", "conditions": "db/db diabetic mice; 1.0 mg/kg-day, gavage once daily for three days"}}, "note": "Marks after values point to notes of the source that are not given here."}
{"smiles": "CN(CCOc1ccc(CC2SC(=O)NC2=O)cc1)c1ccccn1", "note": "(centres unmarked) [rosiglitazone]", "values": [{"measurement": "Insulin (serum)", "setting": "KK-Ay/Ta mice", "result": 88.7, "unit": "% Pretreatment"}, {"measurement": "Insulin (serum)", "setting": "db/db mice", "result": "84.7# % Pretreatment"}]}
